scFv variants of Ab-91 (heavy chain) against a SARS-CoV-2 spike peptide

The measurements come from Engelhart et al. 2022 (doi:10.1038/s41597-022-01779-4) through the FLAb antibody collection.

The target is the same throughout: PDVDLGDISGINAS, from the HR2 region of SARS-CoV-2 spike.

Each scFv is VL, a 15-residue (Gly4Ser)3 linker, VH, as in the parent Ab-91, and differs from it in the CDRs of the heavy chain only.
VL: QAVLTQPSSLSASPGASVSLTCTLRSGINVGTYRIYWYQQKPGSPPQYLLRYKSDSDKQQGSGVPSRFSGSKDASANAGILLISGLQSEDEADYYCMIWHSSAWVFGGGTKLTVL
VH: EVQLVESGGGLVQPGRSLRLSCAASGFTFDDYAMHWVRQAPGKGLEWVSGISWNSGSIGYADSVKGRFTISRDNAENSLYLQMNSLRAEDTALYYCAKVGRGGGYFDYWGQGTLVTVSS

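In library AAYL51, one, two or three CDR residues were substituted; doubles and triples were drawn at random. In AlphaSeq, yeast of one mating type display the scFv and yeast of the other type display the target. The frequency of each diploid, read from paired DNA barcodes, reflects how well the two displayed proteins bind. The ratio of observed to expected reads was calibrated, replicate by replicate, on BCL2-family standards whose Kd was known from biolayer interferometry. Each pool was mated in three replicate cultures.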

Variants are written as CDR1, CDR2 and CDR3 of the heavy chain (limits as in the source). Parent: GFTFDDYAMH, GISWNSGSIGYADSVK, VGRGGGYFDY.
This list gathers variants with a substitution at A61 (VH, numbered from residue 1).
Affinities are written as log10 Kd with Kd in nM; a lower number is a better binder.
A mean of the replicates is given; it leaves out those without a signal.
Where no diploid with the target was found in that replicate, the entry reads "ND": below detection, most likely a poor binder, though not proof of it.
Order: sorted from the lowest average up, undetected variants last.

For GFTFDDYAMH | GISWNSGSIGYSDSVK | VVRGGGYFDW, the assay gave 1.33, 1.32, 0.80 (mean 1.15). Variant GFTFDDYAMH | GISWNSGSIGYDDSVK | VGRGGGYFDY gave 1.52, 1.32, 0.80 (mean 1.21). Variant EFTFSDYAMH | GISWNSGSIGYKDSVK | VGRGGGYFDY showed ND, 3.30, ND. With GFTFDDYAMH | GISWNSGSIGYYDSLK | VGRGTGYFDY the result was 3.37, ND, ND. With GFTFDDYAVH | GITWNSGSIGYPDSVK | VGRGGGYFDY the result was 4.47, 6.60, ND (mean 5.54). Variant GFTFDDYAMH | GISWNSGSIIYQDSVK | VFRGGGYFDY showed ND, ND, ND. With GFTFDDYAMH | GISWNSGSIGGGDSVK | MGRGGGYFDY the result was ND, ND, ND.

Parent in this assay: reference entry 1.86, copy in this library 0.88.
Three control strains display no target. For library AAYL51, 21% of the pairings with them gave a signal, with a median of 4.54 and one signal in twenty below 3.26, so weak values seen in few replicates may be background.